Experimental data reported in US12472248B2, “Antibodies against fentanyl and fentanyl analogs” (dated 2025).

System: postimmune sera (week 16)
Test: Serum binding of drugs by ED-LC-MS/MS
Conditions: serum dilutions 1:1600 to 1:6400

Substance: Norfentanyl
- fractions bound compared with fentanyl: less than those of fentanyl

This is a selection: effects in other tests are not listed, and their absence says nothing.
